Our source for the Ratio IC50 and fold change (FC) values is ChEMBL document CHEMBL5352402, “Discovery of novel non-nucleoside inhibitors with high potency and selectivity for DNA methyltransferase 3A” (Eur J Med Chem, 2022).

For assay [1], the species on record is Homo sapiens. Description: Selectivity index, ratio of IC50 for inhibition of N-terminal GST-tagged full-length recombinant human DNMT1 to IC50 for inhibition of N-terminal His-tagged human DNMT3A (623 to 912 residues)/N-terminal GST-tagged human DNMT3L (160 to 387 residues) co-expressed in baculovirus infected Sf9 cells.
For assay [2], the species on record is Homo sapiens. Description: Selectivity index, ratio of IC50 for inhibition of N-terminal His-tagged human DNMT3B (564 to 853 residues)/N-terminal GST-tagged human DNMT3L (160 to 387 residues) co-expressed in baculovirus infected Sf9 cells to IC50 for inhibition of N-terminal His-tagged human DNMT3A (623 to 912 residues)/N-terminal GST-tagged human DNMT3L (160 to 387 residues) co-expressed in baculovirus infected Sf9 cells.

For assay [3], the species on record is Homo sapiens. The assay can be described thus: Selectivity index, ratio of IC50 for inhibition of N-terminal GST-tagged human G9a expressed in baculovirus infected Sf9 cells to IC50 for inhibition of N-terminal His-tagged human DNMT3A (623 to 912 residues)/N-terminal GST-tagged human DNMT3L (160 to 387 residues) co-expressed in baculovirus infected Sf9 cells.

Assay [4] concerns the target DNA (cytosine-5)-methyltransferase 3A (Homo sapiens) (UniProt Q9Y6K1). The assay can be described thus: Inhibition of DNMT3A in human HCT-116 cells assessed as fold increase in p53 protein level at 1 uM incubated for 72 hrs by Western blot analysis relative to control. In kind it is cell-based.

Regarding `Cc1oc2ncn(CCCN3CCCCC3)c(=O)c2c1C(=O)Nc1ccc(S(N)(=O)=O)nc1`, the Ratio IC50 in the assay filed under Homo sapiens [1] stood at 12.2; in the assay filed under Homo sapiens [2] it was 49.8; in the assay listed under Homo sapiens [3] it was 11.5.
Turning to `Cc1oc2ncn(CCN(C)C)c(=O)c2c1C(=O)Nc1ccc(S(N)(=O)=O)nc1`, the figures for the Ratio IC50 in the assay listed under Homo sapiens [1], in the assay filed under Homo sapiens [2] and in the assay listed under Homo sapiens [3] were 27.9, 293 and above 667, respectively. Besides, the fold change (FC) in assay [4] worked out at 3.
Regarding `Cc1oc2ncn(CCN3CCCCC3)c(=O)c2c1C(=O)Nc1ccc(S(N)(=O)=O)nc1`, the Ratio IC50 was 73.1 in the assay filed under Homo sapiens [1], above 143 in the assay listed under Homo sapiens [2] and above 714 in the assay filed under Homo sapiens [3]. In addition, in assay [4], the fold change (FC) stood at 3.
Turning to `Cc1oc2ncn(CCCN3CCCC3)c(=O)c2c1C(=O)Nc1ccc(S(N)(=O)=O)nc1`, the Ratio IC50 in the assay filed under Homo sapiens [1] amounted to 5.3; in the assay filed under Homo sapiens [2] it was 66.7; in the assay listed under Homo sapiens [3], 171.
On to `Cc1oc2ncn(CCN3CCCC3)c(=O)c2c1C(=O)Nc1ccc(S(N)(=O)=O)nc1`, for which the Ratio IC50 was 33.3 in the assay filed under Homo sapiens [1], 269 in the assay filed under Homo sapiens [2] and above 1000 in the assay listed under Homo sapiens [3]. The fold change (FC) in assay [4] amounted to 3.
